# Laboratory results as given in PubChem BioAssay AID375 (SRMLSC, 2006).
# The chains behind the UniProt entries cited, without tags or fusion partners.
# UniProt P9WIL5, whole entry: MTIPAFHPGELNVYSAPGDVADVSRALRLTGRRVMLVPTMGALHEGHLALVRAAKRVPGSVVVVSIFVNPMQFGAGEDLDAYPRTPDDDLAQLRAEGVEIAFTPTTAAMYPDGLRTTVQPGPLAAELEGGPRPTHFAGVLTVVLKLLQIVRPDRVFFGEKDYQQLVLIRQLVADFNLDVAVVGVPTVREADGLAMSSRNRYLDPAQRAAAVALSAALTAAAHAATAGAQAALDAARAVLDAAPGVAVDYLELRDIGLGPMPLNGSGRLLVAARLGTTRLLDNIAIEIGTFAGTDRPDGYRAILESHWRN
# The list shows a part of the results, in another mix than the full data. Some tests of the compounds listed are not included; inactive here does not mean inactive elsewhere. Calls of active or inactive are those of the source. How the calls were made is not given here.
# Biological target: Pantothenate synthetase (Mycobacterium tuberculosis (strain ATCC 25618 / H37Rv)) (UniProt P9WIL5)
# Assay: Recombinant Mtb pantothenate synthetase (PanC) inhibitors, coupled enzyme, confirmatory (AID 375);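 further: 0% = full reaction with vehicle and 100% = no enzyme background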
# Details: coupled enzyme assay, at 10 µM, hits give high values
row,SMILES,inhibition
1,O=C(OC1CN2CCC1CC2)C(CO)(c1ccccc1)c1ccccc1 (stereo unspecified),inactive: 5%
